Experimental data from patent US9611297B1, “Compositions and methods for the treatment of cast nephropathy and related conditions” (Thrasos Therapeutics Inc., priority 2016, dated 2017).

Assays:
[1] = target: T1, uromodulin binding to light chain BER (subtype lambda) (Homo sapiens, UniProt P07911); test: ELISA: inhibition of biotin-uromodulin binding to plate-coated light chain clone BER
T1 construct: Uromodulin was precipitated from fresh urine from healthy donors using 0.58M NaCl; from tissue; host or cells: urine of healthy human donors (uromodulin); SP2/0 cells (light chain BER)
Experimental: (§1) Uromodulin was precipitated from fresh urine from healthy donors using 0.58M NaCl. The precipitate was then washed with 0.58M NaCl and resuspended in water. […] Samples were then stored at −20° C. without lyophilization.
(§2) Enzyme-linked immunosorbant assays (ELISA) were performed on the disclosed peptides. Plates were coated with the following light chain clones overnight at 4° C.: 0.05 uM BER (subtype lambda, isolated from SP2/0 cells), 0.2 uM ROC (subtype kappa, isolated from CHO cells), and 0.3 uM BEN (subtype lambda, isolated from CHO cells). The plates were washed and treated with bovine serum albumin (BSA) overnight at 4° C. For peptide plates, 10 nM biotin-uromodulin was mixed with peptide overnight at 4° C.

[2] = target: T2, uromodulin binding to light chain BEN (subtype lambda) (Homo sapiens, UniProt P07911); test: ELISA: inhibition of biotin-uromodulin binding to plate-coated light chain clone BEN
T2 construct: Uromodulin was precipitated from fresh urine from healthy donors using 0.58M NaCl; from tissue; host or cells: urine of healthy human donors (uromodulin); CHO cells (light chain BEN)
Experimental: as §1, §2

Stability in plasma = assay type: in vitro ADME
Text: (§3) Binding inhibition, stability, and solubility data was obtained for peptides of the Formula SEQ ID No. 1. MLC90 represents the lowest IC50 at which uromodulin binding to 90% of the light chains tested was inhibited. KBB is kidney brush border enzyme.

[3] = target: T3, uromodulin binding to light chain ROC (subtype kappa) (Homo sapiens, UniProt P07911); test: ELISA: inhibition of biotin-uromodulin binding to plate-coated light chain clone ROC
T3 construct: Uromodulin was precipitated from fresh urine from healthy donors using 0.58M NaCl; from tissue; host or cells: urine of healthy human donors (uromodulin); CHO cells (light chain ROC)
Experimental: Uromodulin was precipitated from fresh urine from healthy donors using 0.58M NaCl. The precipitate was then washed with 0.58M NaCl and resuspended in water. The uromodulin was dialyzed extensively against water to remove salt and other contaminants (MWCo=50 KD). Samples were then stored at −20° C. without lyophilization. Good overall purity was seen by gel electrophoresis.
as §2

[4] = system: kidney brush border enzyme; test: Stability against kidney brush border enzyme (KBB); assay type: in vitro ADME
Text: as §3

[5] = target: T4, uromodulin binding to 90% of the light chains tested (Homo sapiens, UniProt P07911); test: Binding inhibition MLC90 (ex vivo conditions)
T4 construct: Uromodulin was precipitated from fresh urine from healthy donors using 0.58M NaCl; from tissue; host or cells: urine of healthy human donors (inferred: the only uromodulin preparation described)
Text: as §3

Solubility in saline = assay type: physicochemical; conditions: read-out: Solubility (saline, mg/mL)
Text: as §3

Stability in urine = assay type: in vitro ADME
Text: as §3

[6] = Plasma pharmacokinetics in rat (IV bolus, IV infusion, intraperitoneal injection); assay type: in vivo; conditions: broad range of doses
Experimental: (§4) The plasma pharmacokinetics of SEQ ID No. 27 was evaluated following intravenous (IV) bolus injection (FIG. 1) and 2 hour IV infusion (FIG. 2) in rats. Similarly, FIG. 3 plasma pharmacokinetics of SEQ ID No. 27 following intraperitoneal injection of SEQ ID No. 27 when compared with SEQ ID No. 4 in rat.

[7] = Urine recovery and clearance after 2 hour IV infusion in rats; assay type: in vivo, rat
Experimental: as §4

| SMILES | IC50 [1] | IC50 [2] | IC50 [3] | further results |
| --- | --- | --- | --- | --- |
| CC(C)[C@@H]1NC(=O)CNC(=O)[C@H](C(C)C)NC(=O)[C@H](CO)NC(=O)[C@H](CC(N)=O)NC(=O)[C@H](CC(=O)O)NC(=O)[C@H](Cc2c[nH]c3ccccc23)NC(=O)[C@H](C(C)C)NC(=O)[C@H](CCC(N)=O)NC(=O)[C@@H](NC(=O)CCCCCN)CSSC[C@@H](C(=O)N[C@@H](CCCCN)C(=O)N[C@@H](CCCCN)C(N)=O)NC1=O [compound 5] | ≥ 500 µM | > 120 µM |  |  |
| CC(C)C[C@@H]1NC(=O)[C@H](C)NC(=O)[C@H](CO)NC(=O)[C@H](CO)NC(=O)CNC(=O)[C@H](Cc2ccc(O)cc2)NC(=O)[C@H](Cc2c[nH]cn2)NC(=O)[C@H](CCC(N)=O)NC(=O)[C@@H](NC(=O)CCCCCN)CSSC[C@@H](C(=O)N[C@@H](CCCCN)C(=O)N[C@@H](CCCCN)C(N)=O)NC(=O)[C@H]([C@@H](C)O)NC1=O [compound 19] |  | 3.3 µM |  |  |
| CC[C@H](C)[C@@H]1NC(=O)[C@H](CO)NC(=O)[C@@H](Cc2ccc(O)cc2)NC(=O)[C@H](CO)NC(=O)[C@H](CCC(N)=O)NC(=O)[C@H](CCC(N)=O)NC(=O)[C@@H](NC(=O)CCCCCN)CSSC[C@@H](C(=O)N[C@H](CCCCN)C(=O)N[C@H](CCCCN)C(N)=O)NC(=O)[C@H]([C@@H](C)O)NC(=O)[C@H](Cc2ccc(O)cc2)NC(=O)[C@@H]2CCCN2C1=O [compound 27] | 27.1 µM | 2.8 µM | 26.5 µM | Stability Plasma50% (Stability in plasma): >120 min; Stability KBB50% [4]: >60 min; IC50 [5]: 27.1 µM; solubility (Solubility in saline): ≥ 100 mg/mL; Stability Urine80% (Stability in urine): >2 h |
| CC[C@H](C)[C@@H]1NC(=O)[C@H](CO)NC(=O)[C@@H](Cc2ccc(O)cc2)NC(=O)[C@H](CO)NC(=O)[C@H](CCC(N)=O)NC(=O)[C@H](CCC(N)=O)NC(=O)[C@@H](NC(=O)CCCCCN)CSSC[C@@H](C(=O)N[C@H](CCCCN)C(=O)N[C@H](CCCCN)C(N)=O)NC(=O)[C@H]([C@@H](C)O)NC(=O)[C@H](Cc2ccc(O)cc2)NC(=O)[C@@H]2CCCN2C1=O [SEQ ID No. 27, AhaCQQSY*SIPYTCK*K*] |  |  |  | dose-exposure proportionality [6]: very good dose-exposure proportionally over a broad range of doses; clearance rate [7]: essentially equal to the glomerular filtration rate; percentage of intact peptide recovered in the urine ([7]; infusion of 10 mg/kg for 2 hours, mean±SD): 100%±22% |
| CC[C@H](C)[C@@H]1NC(=O)[C@H](CO)NC(=O)[C@H](Cc2ccc(O)cc2)NC(=O)[C@H](CO)NC(=O)[C@H](CCC(N)=O)NC(=O)[C@H](CCC(N)=O)NC(=O)[C@@H](NC(=O)CCCCCN)CSSC[C@@H](C(=O)N[C@@H](CCCCN)C(=O)N[C@@H](CCCCN)C(N)=O)NC(=O)[C@H]([C@@H](C)O)NC(=O)[C@H](Cc2c[nH]c3ccccc23)NC(=O)[C@@H]2CCCN2C1=O [compound 11] |  |  |  | Stability Plasma50% (Stability in plasma): <5 min; Stability KBB50% [4]: 5 min; solubility (Solubility in saline): ≥ 100 mg/mL; Stability Urine80% (Stability in urine): >2 h |
| CC[C@H](C)[C@@H]1NC(=O)[C@@H]2CCCN2C(=O)[C@H](CC(C)C)NC(=O)[C@H](Cc2ccc(O)cc2)NC(=O)[C@H](CO)NC(=O)[C@H](Cc2ccc(O)cc2)NC(=O)[C@H](CCC(N)=O)NC(=O)[C@H](CCC(N)=O)NC(=O)[C@@H](NC(=O)CCCCCN)CSSC[C@@H](C(=O)N[C@H](CCCCN)C(=O)N[C@H](CCCCN)C(N)=O)NC(=O)[C@H]([C@@H](C)O)NC1=O [compound 14] | 17.3 µM | 2.8 µM | 20.9 µM |  |
| CC[C@H](C)[C@@H]1NC(=O)[C@H](CO)NC(=O)[C@H](Cc2ccc(O)cc2)NC(=O)[C@H](CO)NC(=O)[C@H](CCC(N)=O)NC(=O)[C@H](CCC(N)=O)NC(=O)[C@@H](NC(=O)CCCCCN)CSSC[C@@H](C(=O)N[C@@H](CCCCN)C(=O)N[C@@H](CCCCN)C(N)=O)NC(=O)[C@H]([C@@H](C)O)NC(=O)[C@H](CCC(=O)O)NC(=O)[C@@H]2CCCN2C1=O [compound 35] | > 120 µM |  | > 120 µM |  |
| C[C@@H]1NC(=O)[C@H]([C@@H](C)O)NC(=O)[C@H](CO)NC(=O)[C@H](Cc2ccc(O)cc2)NC(=O)[C@H](CCC(N)=O)NC(=O)[C@H](CCC(N)=O)NC(=O)[C@@H](NC(=O)CCCCCN)CSSC[C@@H](C(=O)N[C@@H](CCCCN)C(=O)N[C@@H](CCCCN)C(N)=O)NC(=O)[C@H]([C@@H](C)O)NC(=O)[C@H](Cc2c[nH]c3ccccc23)NC(=O)[C@@H]2CCCN2C1=O [compound 15] | ≥ 500 µM |  | ≥ 500 µM |  |
| C[C@@H](O)[C@@H]1NC(=O)[C@H](Cc2c[nH]c3ccccc23)NC(=O)[C@@H]2CCCN2C(=O)[C@H](Cc2ccc(O)cc2)NC(=O)[C@H](CC(N)=O)NC(=O)[C@H](CCCCN)NC(=O)[C@H](Cc2ccc(O)cc2)NC(=O)[C@H](CCC(N)=O)NC(=O)[C@H](CCC(N)=O)NC(=O)[C@@H](NC(=O)CCCCCN)CSSC[C@@H](C(=O)N[C@@H](CCCCN)C(=O)N[C@@H](CCCCN)C(N)=O)NC1=O [compound 17] | ≥ 500 µM |  | > 120 µM |  |
| CC(C)C[C@@H]1NC(=O)[C@H]([C@@H](C)O)NC(=O)[C@H](CC(N)=O)NC(=O)[C@H](CC(=O)O)NC(=O)[C@H](Cc2ccc(O)cc2)NC(=O)[C@H](CO)NC(=O)[C@H](CCC(N)=O)NC(=O)[C@@H](NC(=O)CCCCCN)CSSC[C@@H](C(=O)N[C@@H](CCCCN)C(=O)N[C@@H](CCCCN)C(N)=O)NC(=O)[C@H](C(C)C)NC(=O)[C@H](Cc2ccc(O)cc2)NC(=O)[C@H](CO)NC(=O)CNC(=O)[C@H](CO)NC1=O [compound 6] | > 120 µM |  | > 120 µM |  |
| CC(C)C[C@@H]1NC(=O)[C@@H]2CCCN2C(=O)[C@H](CC(C)C)NC(=O)[C@H](CO)NC(=O)[C@H](CC(=O)O)NC(=O)[C@H](Cc2ccc(O)cc2)NC(=O)[C@H](CCC(N)=O)NC(=O)[C@H](CCC(N)=O)NC(=O)[C@@H](NC(=O)CCCCCN)CSSC[C@@H](C(=O)N[C@@H](CCCCN)C(=O)N[C@@H](CCCCN)C(N)=O)NC(=O)[C@H]([C@@H](C)O)NC1=O [compound 13] |  | 3.3 µM |  |  |
| CC(C)C[C@@H]1NC(=O)[C@H](CO)NC(=O)[C@H](CC(=O)O)NC(=O)[C@H](CC(=O)O)NC(=O)[C@H](Cc2c[nH]c3ccccc23)NC(=O)[C@H](C)NC(=O)[C@H](C)NC(=O)[C@@H](NC(=O)CCCCCN)CSSC[C@@H](C(=O)N[C@@H](CCCCN)C(=O)N[C@@H](CCCCN)C(N)=O)NC(=O)[C@H](C(C)C)NC(=O)[C@@H]2CCCN2C(=O)CNC(=O)[C@H](CC(N)=O)NC1=O [compound 2] | ≥ 500 µM |  | ≥ 500 µM |  |
| CC(C)[C@@H]1NC(=O)CNC(=O)[C@H](CCC(=O)O)NC(=O)[C@H](CC(N)=O)NC(=O)[C@H]([C@@H](C)O)NC(=O)[C@H](CO)NC(=O)[C@H](CC(=O)O)NC(=O)[C@H](Cc2ccc(O)cc2)NC(=O)[C@H](CO)NC(=O)[C@H](CCC(N)=O)NC(=O)[C@@H](NC(=O)CCCCCN)CSSC[C@@H](C(=O)N[C@@H](CCCCN)C(=O)N[C@@H](CCCCN)C(N)=O)NC1=O [compound 10] | ≥ 500 µM |  | ≥ 500 µM |  |
